## Measured affinities in a library of Ab-95 light chain variants

All variants were tested on one target, the spike HR2 peptide PDVDLGDISGINAS (SARS-CoV-2).

Parent: Ab-95, a human scFv built as VH, the linker GGGGSGGGGSGGGGS, VL. Only the CDRs of the light chain vary.
VH: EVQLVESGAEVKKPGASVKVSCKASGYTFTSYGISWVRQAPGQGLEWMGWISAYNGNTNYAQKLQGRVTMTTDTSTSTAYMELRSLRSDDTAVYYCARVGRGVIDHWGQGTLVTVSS
VL: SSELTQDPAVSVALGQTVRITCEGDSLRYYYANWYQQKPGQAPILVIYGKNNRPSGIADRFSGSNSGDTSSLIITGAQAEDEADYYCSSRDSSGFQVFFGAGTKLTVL

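The library (AAYL52) carries one to three amino acid substitutions per variant, with no insertions or deletions. Affinity was read by AlphaSeq, a pooled yeast mating assay with surface-displayed partners. Pairs that bind mate more often; barcode pairs of the diploids are counted by sequencing. A regression on co-assayed BCL2-family reference pairs converts the normalised counts of each replicate to an apparent Kd. The assay was run in three technical replicates.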

Variants are written as CDR1, CDR2 and CDR3 of the light chain (limits as in the source). Parent: EGDSLRYYYAN, GKNNRPS, SSRDSSGFQVF.
The read-out is the apparent dissociation constant on a log10 scale (nM): the lower, the stronger.
A pair that was not seen in that replicate is written "nd"; this usually means weak binding, but a binder can also be missed.
Three control strains display no target. For library AAYL52, 28% of the pairings with them gave a signal, with a median of 3.91 and one signal in twenty below 2.90, so weak values seen in few replicates may be background. Also given: how often the same scFv was detected with the empty control strains.

EGDSLRYYYAN | GKNNIPS | SSDDSSGFIVF: 4.52, 3.86, 3.27 (controls 2 of 9).
EGDSLRYYYAN | GKPNRPQ | SSRDSSGFQVF: nd, nd, 3.84 (controls 4 of 9).
EGDSSRYYYAN | GKNQRPS | SSRDSSGFFVF: 5.62, 3.80, 3.97 (controls 6 of 9).
EGDSLRYWYAN | GKNFRPS | MSRDSSGFQVF: 2.44, 2.20, 2.43 (controls 1 of 9).
EGDSLRYYYAN | GKNFPPS | SSSDSSGFQVF: nd, 2.86, nd (controls 2 of 9).
EGDSLRHYIAN | GKNNRPS | SSRDSCGFQVF: nd, 3.43, nd (controls 3 of 9).
EGDSLVYYYAN | GANNRPS | SSRDWSGFQVF: 4.79, 3.06, nd (controls 0 of 9).
EGDSLRDYYAN | GKNWRPS | SSRRSSGFQVF: nd, nd, 2.49 (controls 0 of 9).
EGDSLRYYYAN | EKNNRPS | MSRPSSGFQVF: 3.54, 2.99, 4.35 (controls 3 of 9).
EGDSLRDYYAN | GKNNRRS | SSRWSSGFQVF: 2.96, 4.09, 3.04 (controls 4 of 9).
EQDSCRYYYAN | GKNNRKS | SSRDSSGFQVF: nd, 4.42, nd (controls 0 of 9).
EGDSLRYYMAN | GKNNRPS | SYRDVSGFQVF: 2.64, 2.88, 2.72 (controls 3 of 9).
EGDSLRYYYAN | GKNNRPQ | SSRDSSDFQVF: 2.80, 3.20, nd (controls 5 of 9).
EGDSLRYYKAN | GKNNRPD | SSRDSSGFQVF: 1.74, 1.51, 2.15 (controls 3 of 9).
EGDSLRYYYAN | PKNWRPS | SSRDSSGFGVF: 5.30, 5.28, nd (controls 1 of 9).
EVDSLRYYYAN | GKNNRPR | SSRHSSGFQVF: nd, 3.05, nd (controls 4 of 9).
EGDSLRYYYAI | GKNNRPS | GSRVSSGFQVF: nd, nd, 3.51 (controls 2 of 9).
EGISLRYYYAN | GKNNRPS | GHRDSSGFQVF: nd, 3.64, nd (controls 1 of 9).
EGHSSRYYYAN | GKNNRPS | SSRDSSGFTVF: nd, 4.16, 4.52 (controls 1 of 9).
EEDSVRYYYAN | GKNNRPS | SSRYSSGFQVF: nd, nd, nd (controls 3 of 9).
EGDSLRYYRAN | GKNNRPL | SSRDGSGFQVF: nd, nd, nd (controls 0 of 9).
MGDSLRYYYAN | GKNNRGS | SDRDSSGFQVF: 3.37, 5.92, nd (controls 3 of 9).
EGDWLRYYYAN | GKNNRPS | SSRDDSGFHVF: 3.71, 3.18, 3.40 (controls 3 of 9).
EGDSLFYYYAN | GKNNRPS | SEFDSSGFQVF: 2.88, 3.50, 2.91 (controls 6 of 9).
EGQSLRYVYAN | GKNNRPS | SSRTSSGFQVF: 2.45, 2.34, 1.88 (controls 4 of 9).
EMVSLRYYYAN | GKNNRPS | SSRDSQGFQVF: 4.05, 3.67, 4.46 (controls 2 of 9).
EGDSLRYYYAN | GKNNRVQ | SSRDSSGFQVF: 2.96, 3.29, 2.52 (controls 3 of 9).
EGDSLRYNYAN | GKNNRPS | SSRDSSGFQVF: 1.77, 1.56, 0.83 (controls 2 of 9).
EGTSLRYYYAN | GKMYRPS | SSRDSSGFQVF: 3.87, 3.27, 3.73 (controls 4 of 9).
EGDSLRYYYAP | GKNNRPS | SSRDSSAFQVF: nd, nd, nd (controls 3 of 9).
VGDSLRYYYAN | GKNNRPS | SSRKSSDFQVF: 2.31, 2.50, 1.63 (controls 5 of 9).
VGDSLRYYYAN | GKNNRPM | SSRDSSGFQVY: 2.50, 2.27, 2.44 (controls 2 of 9).
EGQSLRYYYAD | GKNNRHS | SSRDSSGFQVF: 2.44, 3.05, 3.07 (controls 1 of 9).
EGDSLRYYYMN | GKNNFPS | SSRDSSPFQVF: nd, 5.47, nd (controls 2 of 9).
EGDSLRTYYAN | GNNNEPS | SSRDSSGFQVF: nd, 3.89, nd (controls 2 of 9).
EGDSERYYYAN | GKNNFLS | SSRDSSGFQVF: nd, nd, nd (controls 4 of 9).
EGDSLRYYYAN | FKNNYPS | SSRDPSGFQVF: 4.13, nd, nd (controls 5 of 9).
EGDSLRYYYFA | GKNNRPS | ASRDSSGFQVF: 4.68, 5.64, 4.33 (controls 2 of 9).
EGDSLRYYYAN | RKNNRCS | SSRDSSGFQVF: 4.60, 4.00, nd (controls 1 of 9).
EGDSLRSYYAN | GKNNRPS | YSRDSSGFQEF: nd, nd, nd (controls 0 of 9).
EGDSLRIYYAN | GKNNRPS | SSRDSPGFQKF: nd, nd, nd (controls 4 of 9).
EGDSLLYYYAN | GKNNRPS | SFRDSSGAQVF: 3.31, 2.47, 2.53 (controls 2 of 9).
EGDSLRYYYYN | GKNNRPN | SSRDSSGFQHF: nd, nd, nd (controls 2 of 9).
VTDSLRYYYAN | GKNNRPS | SSRDSSGFQVF: 2.93, 3.25, nd (controls 4 of 9).
EGDSLRYYYAN | IKPNRPS | SSYDSSGFQVF: 3.83, nd, nd (controls 1 of 9).

For reference, 3 entries of the list once more:

EGDWLRYYYAN | GKNNRPS | SSRDDSGFHVF: 3.71, 3.18, 3.40 (controls 3 of 9).
EGDSLRYYYAN | GKNFPPS | SSSDSSGFQVF: nd, 2.86, nd (controls 2 of 9).
EGDSLRYWYAN | GKNFRPS | MSRDSSGFQVF: 2.44, 2.20, 2.43 (controls 1 of 9).

Data: MIT Lincoln Laboratory AlphaSeq set, Engelhart et al. 2022, doi:10.1038/s41597-022-01779-4, as distributed in FLAb.